Earlier results as cited in US5861405A, “S-substituted 1,3,7-trialkyl-xanthine derivatives” (priority 1994, dated 1999).

Tested on: A2 receptors
Details: background; cited from earlier work

SMILES: C#CCn1c(=O)c2c(ncn2C)n(C)c1=O [DMPX, 3,7-dimethyl-1-propargylxanthine]
- A2 selectivity, in words: A2 -selective but by less than one order of magnitude
